{"sequences": {"note": "Protein sequences, listed by entry. Tags and fused reporters are not part of them. Lines headed by an entry give the natural chain unless they say otherwise; changes in a name come on top.", "UniProt Q16828": "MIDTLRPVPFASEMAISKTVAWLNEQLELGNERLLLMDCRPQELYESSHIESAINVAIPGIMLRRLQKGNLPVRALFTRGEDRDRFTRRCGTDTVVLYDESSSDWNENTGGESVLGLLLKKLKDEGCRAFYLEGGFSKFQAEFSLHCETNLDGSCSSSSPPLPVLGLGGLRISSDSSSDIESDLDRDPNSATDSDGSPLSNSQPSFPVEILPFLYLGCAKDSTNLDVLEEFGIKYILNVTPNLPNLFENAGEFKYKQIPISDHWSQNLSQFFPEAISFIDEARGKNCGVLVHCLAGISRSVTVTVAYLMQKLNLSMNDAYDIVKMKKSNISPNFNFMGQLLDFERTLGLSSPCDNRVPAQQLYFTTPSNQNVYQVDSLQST"}, "source": "PubChem BioAssay", "molecular_target": "Dual specificity protein phosphatase 6 (Homo sapiens) (UniProt Q16828)", "assay": "Primary imaging screen for DUSP6 inhibitors that restore phospho-Erk in transfected HeLa cells, chemical complementation (AID 609);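 further: phospho-Erk level distribution per well compared with pooled transfected vehicle control wells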", "settings": "HeLa MKP-3 transfected, phospho-Erk imaging KS statistic; at 10 µM; stronger effect = higher value; cells stimulated with TPA for 15 min", "note": "The other results are listed elsewhere or left out. Calls of active or inactive are those of the source.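 How the source made its calls: active means compounds giving at least 50% inhibition in the cell-based MKP-3 phosphatase rescue imaging test; inactive means the rest.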", "data": [{"molecule": "Cc1ccc(OCC(=O)OC2CN3CCC2CC3)cc1", "note": "(configuration not stated)", "values": [{"measurement": "inhibition", "result": "inactive: -8.76%"}]}, {"molecule": "Cc1cccc(OCC(=O)OC2CN3CCC2CC3)c1", "note": "(configuration not stated)", "values": [{"measurement": "inhibition", "result": "inactive: -4.59%"}]}]}
